Laboratory results from patent US6479487B1, “6, 9-disubstituted 2-[trans-(4-aminocyclohexyl)amino] purines” (Aventis Pharmaceuticals Inc., priority 1998, dated 2002).

Protein sequences, listed by entry. Tags and fused reporters are not part of them. Lines headed by an entry give the natural chain unless they say otherwise; changes in a name come on top.
UniProt P11802: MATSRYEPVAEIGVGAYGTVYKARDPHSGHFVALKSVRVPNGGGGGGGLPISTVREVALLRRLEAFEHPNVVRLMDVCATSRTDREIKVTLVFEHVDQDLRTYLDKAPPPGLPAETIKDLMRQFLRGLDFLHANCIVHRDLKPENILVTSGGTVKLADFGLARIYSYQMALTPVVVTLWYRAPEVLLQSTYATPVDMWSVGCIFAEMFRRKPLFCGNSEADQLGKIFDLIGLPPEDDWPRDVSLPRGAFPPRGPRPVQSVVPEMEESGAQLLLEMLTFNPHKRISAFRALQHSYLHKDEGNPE

Target: T1, cdk4/cyclin D1 (Homo sapiens, UniProt P11802)
T1 construct: made in house; host or cells: Sf9 insect cells (Bac-to-Bac baculovirus, pFastBac)
Assay: Cyclin-dependent Kinase 4 Assay (cdk4/cyclin D1, GST-Rb substrate)
Assay type: biochemical
Settings: CDK4 Inhibition IC50 (μM), cdk4/cyclin D1 insect cell lysate, 10 μM ATP, 30 min at 37° C., several values = separate determinations

## Cn1cnc2c(NCc3ccccc3)nc(NCCO)nc21 [Olomoucine, 6-(benzylamino)-2-[(2-hydroxyethyl)amino]-9-methylpurine, reference compound]
  IC50: > 1000 µM
